# Measured affinities in a library of Ab-14 light chain variants

Antigen: PDVDLGDISGINAS, a 14-residue peptide of the SARS-CoV-2 spike HR2 region.

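The starting antibody came from a phage panning campaign against this peptide. This is the validation round: designs drawn from the data on random variants, tested in the same kind of assay. Group labels follow the data file (Ctrl: baseline library sampled from a position-specific scoring matrix, with some repeated check sequences; Rand: our label for a block that the file lists under HC and that is probably the random mutants of the ten best first-round binders; En: ensemble of fine-tuned language models; GP: Gaussian process model; HC: hill climbing; Gen: genetic algorithm; Gibbs: Gibbs sampling; a sequence that several methods proposed may carry one label only). Affinity was read by AlphaSeq, a pooled yeast mating assay with surface-displayed partners. Mating (16 h, 30 °C) was followed by selection of diploids and sequencing of their barcodes. Scores were corrected for input abundance and mapped to Kd with protein pairs of known affinity run in the same pool. The assay was run in six technical replicates.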

The variants keep the heavy chain, the linker and the frameworks of Ab-14 (scFv order VH, a 15-residue (Gly4Ser)3 linker, VL).
VH: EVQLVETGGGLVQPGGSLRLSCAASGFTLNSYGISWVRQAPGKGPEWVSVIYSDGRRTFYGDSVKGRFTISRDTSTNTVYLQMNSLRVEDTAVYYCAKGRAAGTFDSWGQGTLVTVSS
VL: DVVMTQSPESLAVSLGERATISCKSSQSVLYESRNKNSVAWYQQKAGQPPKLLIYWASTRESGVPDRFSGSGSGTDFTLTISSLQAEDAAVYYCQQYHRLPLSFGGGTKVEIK

The parent's light chain CDRs are KSSQSVLYESRNKNSVA, WASTRES, QQYHRLPLS; each variant's own CDRs replace them letter for letter. Values are apparent Kd, the geometric mean of the replicates that gave a signal; lower means stronger binding. An entry "nd" has no value in the source: the pair was not observed among the diploids in any replicate. This suggests poor binding but is not conclusive. Order: sorted from the lowest average up, undetected variants last. A sequence measured in both rounds can read differently, since the two assays cover different ranges.

CDR-L1	CDR-L2	CDR-L3	group	Kd (apparent)	seen in
KLPQSELYESRMKNSVA	NASQRES	QQYHRLPLS	GP_Gen	510 pM	6/6
FLSQSVLYESRMKNSVA	NASTRES	QQYHRLPLS	GP_Gen	530 pM	6/6
KLQQSVLYESRNKNSVA	HASLRED	QQYHRLPLS	GP_HC	580 pM	6/6
MISDLTMYGSRNVNSVA	DLSHRGS	QQYHRLPLS	En_HC	680 pM	6/6
KLPQSVLYESRNKNSVA	EASQRES	QQYHRLPLS	GP_Gen	690 pM	6/6
KSSPSYLEESRNKNSVA	EASTRES	QQYHRLPLS	GP_HC	700 pM	6/6
KGSQSVKFESRNKNSVA	DASTRES	QQYHRLPLS	GP_HC	720 pM	6/6
KVFPSGLGLSRNKNSVA	DASTRES	QQYHRLPLS	GP_Gibbs	950 pM	6/6
KLSQLGLYEQRNCNSVA	SASTRCS	QQYHRLPLF	GP_Gibbs	1.1 nM	6/6
KSSQSVLYESDNKNSVA	GASTRES	QQYYRLPLS	Ctrl	1.2 nM	6/6
KLEQLYDYGSRNKNSVA	QASLRES	QQYHRLPLS	GP_Gibbs	1.3 nM	6/6
KLRFSVMGESRNKNSVA	SASTREW	QQYHRLPLS	GP_Gibbs	1.5 nM	6/6
KVSQSELYESRNKNSVA	NASTRMS	QQYHRLPLS	GP_Gen	1.9 nM	6/6
KFEQSQLYESRNKNAVA	NASTRES	QQYHRLPLS	GP_Gen	2.1 nM	6/6
KIIQEGNYESRNKNSVA	SASTRCP	QQYHRLPLS	GP_Gibbs	2.2 nM	6/6
MISQLYNMGQFAINSVA	QASERYN	QQYDRLPLM	En_Gen	2.5 nM	6/6
KIQQSVQYESRNKNSVA	NASDRFS	QQYHRLPLS	GP_Gibbs	2.5 nM	6/6
KLEQSMEYESRNKNSVA	NASQRES	QQYHRLPLS	GP_Gen	2.9 nM	6/6
KSSQWYLYESRNKNSVA	GASTRES	QQYHRLPLS	GP_HC	3.0 nM	6/6
KLSMVTGHLSYEKNNVA	EMETREN	QQYDRLPLS	En_Gen	3.7 nM	6/6
KFSQSVLYESRDKNSVA	WASTRES	QQYHRLPLS	Ctrl	4.2 nM	6/6
NLRMKELGMSWNANNVA	DSENRIK	QQYSRLPLM	En_Gibbs	4.4 nM	6/6
KLMQSTLYESRNKNSVA	NASQRES	QQYHRLPLS	GP_Gen	5.1 nM	6/6
KSSQPVLYEFENKNSVA	AASTRES	QQYHRLPLS	Ctrl	5.3 nM	6/6
KHQQSELYEERNDNSVA	QASQRES	QDYHRLPLS	GP_Gibbs	7.1 nM	6/6
TLYGLSMSMSKNKNNVA	EMSTREP	QQYDRLPLF	En_Gen	7.5 nM	6/6
NLVEMEGTNQTKMGNIA	SVDQRMS	QQYQRLPLI	En_Gibbs	9.3 nM	6/6
TLGASTLEESRNKNSVA	EMSLRES	QSYNRLPLS	En_HC	9.5 nM	6/6
KSSQSVLYGDNNKNSVA	WASTRES	QQYRRLPLS	Ctrl	11 nM	6/6
HMNHEFLGYTNYEQAIA	HESQRLY	QQYSRLPLS	En_Gibbs	16 nM	6/6
KISQSVLYESRYKNSVA	WASTRES	QQYHRLPLR	Ctrl	17 nM	6/6
MLSDLVKMGSRNTDSVA	DNSTRGS	QQYDRLPLS	En_HC	17 nM	6/6
KSSQSVMYESRNKNSVA	NASTRES	QQPHRLPLS	Ctrl	21 nM	6/6
MLSQMWALGNKVKNSVA	QASMRFN	QQYDRLPLI	En_Gen	23 nM	6/6
KVSEFMKGLMMRTDSIA	DNVTRSN	QQYDRLPLS	En_Gen	37 nM	6/6
KIQMNEITLMENINSIA	NSEVIVQ	QSYFRLPLS	En_Gibbs	44 nM	6/6
VLGQNCSEEEMYCASIA	DAQHREA	QQYYRLPFV	En_Gibbs	51 nM	6/6
KHSQSVPYESRNKNSVA	WASTRES	QQYHRLPLS	Ctrl	67 nM	6/6
HSVQSVLYESRNKNSIA	KASTREG	QQYHMLPLS	Ctrl	71 nM	1/6
MISQVMNTLTRHGNNVA	DLQEREV	QQYFRLPLS	En_Gen	74 nM	6/6
KLSMSMLMESRHKNSVA	ENSTRES	QHYHRLPLS	En_HC	180 nM	5/6
KSSQSWLYEKRNKNSVA	GASTRES	QQYPRLPLS	Ctrl	350 nM	2/6
KLANYMYQGSLVQANVA	EAKELWE	QQYGHLPLA	En_Gibbs	440 nM	2/6
KPSQSVLSESRNKNSVA	WASTRES	QQYHRLPLS	Ctrl	5.1 µM	1/6
KSHQSVLFWSRNKNSVV	DASTRES	QQYHRLPYS	Rand	nd	0/6
KMSQSVLYESRNKVSVA	WASTRES	QQYHRLPLS	Ctrl	nd	0/6
KLQWQQYGENAMEAAIA	NEQTVAQ	QQYSKLPLT	En_Gibbs	nd	0/6

The last 8 entries again:

CDR-L1,CDR-L2,CDR-L3,group,Kd (apparent),seen in
MISQVMNTLTRHGNNVA,DLQEREV,QQYFRLPLS,En_Gen,74 nM,6/6
KLSMSMLMESRHKNSVA,ENSTRES,QHYHRLPLS,En_HC,180 nM,5/6
KSSQSWLYEKRNKNSVA,GASTRES,QQYPRLPLS,Ctrl,350 nM,2/6
KLANYMYQGSLVQANVA,EAKELWE,QQYGHLPLA,En_Gibbs,440 nM,2/6
KPSQSVLSESRNKNSVA,WASTRES,QQYHRLPLS,Ctrl,5.1 µM,1/6
KSHQSVLFWSRNKNSVV,DASTRES,QQYHRLPYS,Rand,nd,0/6
KMSQSVLYESRNKVSVA,WASTRES,QQYHRLPLS,Ctrl,nd,0/6
KLQWQQYGENAMEAAIA,NEQTVAQ,QQYSKLPLT,En_Gibbs,nd,0/6

Nonspecific signal, from three strains lacking the peptide, appeared in 4% of pairings of all light chain designs, centred on 430 nM (5% of these signals below 38 nM); values are not corrected for it. In the paper, a design with two or fewer of six values counts as a poor binder.

Reference: Li et al. 2023, doi:10.1038/s41467-023-39022-2. File: FLAb, binding data.